Values quoted from earlier work as cited in patent US20080300263A1, “Pyrazolo [1,5-a] pyrimidine compounds and pharmaceutical compositions containing them” (EiRx Therapeutics plc, priority 2005, published 2008).

System: tumors that express EGFR
Conditions: patients with EGFR-expressing tumors no longer responding to irinotecan; cited from earlier work

## Erbitux: genetically engineered version of a mouse antibody with human and mouse components, targeting epidermal growth factor receptor (EGFR)
  delay of tumor growth: 1.5 months
  tumor response rate (patients whose tumors shrank): 10.8%
